Experiments:
FLT3-ITD-F691L = FLT3-ITD-F691L (Homo sapiens (Human), UniProt P36888, F691L/INS600HVDFREYEYD); assay: pFLT3 MSD assay, Ba/F3 FLT3-ITD-F691L; format: cell-based; conditions: Ba/F3 FLT3-ITD-F691L cells, 2 hours, read-out: BaF3-FLT3-ITD-F691L pFlt3 IC50
FLT3-ITD-D835V = FLT3-ITD-D835V (Homo sapiens (Human), UniProt P36888, D835V/INS600HVDFREYEYD); assay: pFLT3 MSD assay, Ba/F3 FLT3-ITD-D835V; format: cell-based; conditions: Ba/F3 FLT3-ITD-D835V cells, 2 hours, read-out: BaF3-FLT3-ITD-D835V pFlt3 IC50
[1] = tested on: Ba/F3 cells expressing FLT3-ITD
[2] = tested on: Ba/F3 cells expressing FLT3-ITD-D835V

SMILES | IC50 (FLT3-ITD-F691L) [µM] | IC50 (FLT3-ITD-D835V) [µM] | IC50 [1] [µM] | IC50 [2] [µM]
COc1cc2ncc(-c3ccc(CC(=O)Nc4cc(C5(C(F)(F)F)CC5)on4)c(F)c3)nc2cc1OCCO [Example 80, 2-(2-fluoro-4-(7-(2-hydroxyethoxy)-6-methoxyquinoxalin-2-yl)phenyl)-N-(5-(1-(trifluoromethyl)cyclopropyl)isoxazol-3-yl)acetamide] | < 0.01 | < 0.01 | < 0.01 | < 0.01
COc1cc2cc(-c3ccc(CC(=O)Nc4cc(C5(C(F)(F)F)CC5)on4)c(F)c3)cnc2cc1OCCO [Example 88, 2-(2-fluoro-4-(7-(2-hydroxyethoxy)-6-methoxyquinolin-3-yl)phenyl)-N-(5-(1-(trifluoromethyl)cyclopropyl)isoxazol-3-yl)acetamide] | < 0.01 | < 0.01 | < 0.01 | < 0.01
COc1cc2nc(-c3ccc(CC(=O)Nc4cc(C5(C(F)(F)F)CC5)on4)c(F)c3)cnc2cc1OC1CNC1 [Example 89, 2-(4-(6-(azetidin-3-yloxy)-7-methoxyquinoxalin-2-yl)-2-fluorophenyl)-N-(5-(1-(trifluoromethyl)cyclopropyl)isoxazol-3-yl)acetamide] | 0.02 to 0.05 | 0.02 to 0.05 | < 0.01 | 0.01 to 0.02
COc1cc2nc(-c3ccc(CC(=O)Nc4cc(C5(C(F)(F)F)CC5)on4)c(F)c3)cnc2cc1OC1CN(C)C1 [Example 90, 2-(2-fluoro-4-(7-methoxy-6-((1-methylazetidin-3-yl)oxy)quinoxalin-2-yl)phenyl)-N-(5-(1-(trifluoromethyl)cyclopropyl)isoxazol-3-yl)acetamide] | 0.01 to 0.02 | 0.01 to 0.02 | < 0.01 | < 0.01
COc1cc2cc(-c3ccc(CC(=O)Nc4cc(C(C)(C)C(F)(F)F)on4)c(F)c3)cnc2cc1OCCO [Example 91, 2-(2-fluoro-4-(7-(2-hydroxyethoxy)-6-methoxyquinolin-3-yl)phenyl)-N-(5-(1,1,1-trifluoro-2-methylpropan-2-yl)isoxazol-3-yl)acetamide] | < 0.01 | < 0.01 | < 0.01 | < 0.01
CC(C)(C)c1cc(NC(=O)Cc2ccc(-c3cnc4[nH]cc(C5(O)COC5)c4c3)cc2)no1 [Example 97, N-(5-tert-butylisoxazol-3-yl)-2-[4-[3-(3-hydroxyoxetan-3-yl)-1H-pyrrolo[2,3-b]pyridin-5-yl]phenyl]acetamide] | < 0.01 | < 0.01 | < 0.01 | < 0.01
O=C(Cc1ccc(-c2cnc3nn4c(c3c2)OC(CO)C4)cc1F)Nc1cc(C2(C(F)(F)F)CC2)on1 (centres unmarked) [Example 98, 2-[2-fluoro-4-[2-(hydroxy-methyl)-2,3-dihydro-oxazolo[3,4]pyrazolo[1,3-b]pyridin-8-yl]phenyl]-N-[5-[1-(trifluoro-methyl)cyclopropyl]isoxazol-3-yl]acetamide] | > 0.05 | > 0.05 | < 0.01 | > 0.05
CN1CCN(C(=O)c2cc3cc(-c4ccc(CC(=O)Nc5cc(C(C)(C)C)on5)cc4)cnc3[nH]2)CC1 [Example 99, N-(5-tert-butylisoxazol-3-yl)-2-[4-[2-(4-methylpiperazine-1-carbonyl)-1H-pyrrolo[2,3-b]pyridin-5-yl]phenyl]acetamide] | < 0.01 | < 0.01 | < 0.01 | 0.01 to 0.02
CN(C)CCNC(=O)c1n[nH]c2ncc(-c3ccc(CC(=O)Nc4cc(C(C)(C)C)on4)cc3)cc12 [Example 100, 5-[4-[2-[(5-tert-butylisoxazol-3-yl)amino]-2-oxo-ethyl]phenyl]-N-[2-(dimethylamino)ethyl]-1H-pyrazolo[3,4-b]pyridine-3-carboxamide] | 0.02 to 0.05 | 0.02 to 0.05 | < 0.01 | > 0.05
CC(C)(C)c1cc(NC(=O)Cc2ccc(-c3cnc4[nH]nc(-n5nccn5)c4c3)cc2)no1 [Example 101, N-(5-tert-butylisoxazol-3-yl)-2-[4-[3-(triazol-2-yl)-1H-pyrazolo[3,4-b]pyridin-5-yl]phenyl]acetamide] | < 0.01 | < 0.01 | < 0.01 | < 0.01
O=C(Cc1ccc(-c2cnc3[nH]nc(OCC(F)F)c3c2)cc1F)Nc1cc(C2(C(F)(F)F)CC2)on1 [Example 102, 2-[4-[3-(2,2-difluoroethoxy)-1H-pyrazolo[3,4-b]pyridin-5-yl]-2-fluoro-phenyl]-N-[5-[1-(trifluoro-methyl)cyclopropyl]isoxazol-3-yl]acetamide] | < 0.01 | < 0.01 | < 0.01 | < 0.01
CC(C)(C)c1cc(NC(=O)Cc2ccc(-c3cnc4[nH]nc(-n5ccnn5)c4c3)cc2)no1 [Example 103, N-(5-tert-butylisoxazol-3-yl)-2-[4-[3-(triazol-1-yl)-1H-pyrazolo[3,4-b]pyridin-5-yl]phenyl]acetamide] | < 0.01 | < 0.01 | < 0.01 | < 0.01
O=C(Cc1ccc(-c2cnc3[nH]nc(OCCF)c3c2)cc1F)Nc1cc(C2(C(F)(F)F)CC2)on1 [Example 104, 2-[2-fluoro-4-[3-(2-fluoroethoxy)-1H-pyrazolo[3,4-b]pyridin-5-yl]phenyl]-N-[5-[1-(trifluoro-methyl)cyclopropyl]isoxazol-3-yl]acetamide] | < 0.01 | < 0.01 | < 0.01 | < 0.01
COCCOc1cc2ncc(-c3ccc(CC(=O)Nc4cc(C5(C(F)(F)F)CC5)on4)c(F)c3)nc2cc1OCCOC [Example 125, 2-[4-[6,7-bis(2-methoxyethoxy)quinoxalin-2-yl]-2-fluoro-phenyl]-N-[5-[1-(trifluoro-methyl)cyclopropyl]isoxazol-3-yl]acetamide] | < 0.01 | < 0.01 | < 0.01 | < 0.01
COCCOc1cc2ncc(-c3ccc(CC(=O)Nc4cc(C5(C(F)(F)F)CC5)on4)c(F)c3)cc2cc1OC [Example 126, 2-[2-fluoro-4-[6-methoxy-7-(2-methoxyethoxy)-3-quinolyl]phenyl]-N-[5-[1-(trifluoromethyl)cyclo-propyl]isoxazol-3-yl]acetamide] | < 0.01 | < 0.01 | < 0.01 | < 0.01
COc1cc2cc(-c3ccc(CC(=O)Nc4cc(C5(C(F)(F)F)CC5)on4)c(F)c3)cnc2cc1OCCOC(C)=O [Example 127, 2-[[3-[3-fluoro-4-[2-oxo-2-[[5-[1-(trifluoro-methyl)cyclopropyl]isoxazol-3-yl]amino]ethyl]phenyl]-6-methoxy-7-quinolyl]oxy]ethyl acetate] | < 0.01 | < 0.01 | < 0.01 | < 0.01
COc1cc2cc(-c3ccc(CC(=O)Nc4cc(C5(C(F)(F)F)CC5)on4)c(F)c3)cnc2cc1OC [Example 128, 2-[4-(6,7-dimethoxy-3-quinolyl)-2-fluoro-phenyl]-N-[5-[1-(trifluoro-methyl)cyclopropyl]isoxazol-3-yl]acetamide] | < 0.01 | < 0.01 | < 0.01 | < 0.01
COc1cc2cc(-c3ccc(CC(=O)Nc4cc(C(C)(C)C(F)(F)F)on4)c(F)c3)cnc2cc1OC [Example 129, 2-[4-(6,7-dimethoxy-3-quinolyl)-2-fluoro-phenyl]-N-[5-(2,2,2-trifluoro-1,1-dimethyl-ethyl)isoxazol-3-yl]acetamide] | < 0.01 | < 0.01 | < 0.01 | < 0.01
COc1cc2nc(-c3ccc(CC(=O)Nc4cc(C5(C(F)(F)F)CC5)on4)c(F)c3)cnc2cc1OCCOC(C)=O [Example 130, 2-[2-[3-fluoro-4-[2-oxo-2-[[5-[1-(trifluoromethyl)cyclo-propyl]isoxazol-3-yl]amino]ethyl]phenyl]-7-methoxy-quinoxalin-6-yl]oxyethyl acetate] | < 0.01 | < 0.01 | < 0.01 | < 0.01
COc1cc2nc(-c3ccc(CC(=O)Nc4cc(C5(C(F)(F)F)CC5)on4)c(F)c3)cnc2cc1OCCO [Example 131, 2-[2-fluoro-4-[6-(2-hydroxyethoxy)-7-methoxy-quinoxalin-2-yl]phenyl]-N-[5-[1-(trifluoromethyl)cyclo-propyl]isoxazol-3-yl]acetamide] | < 0.01 | < 0.01 | < 0.01 | < 0.01
COc1cc2nc(-c3ccc(CC(=O)Nc4cc(C5(C(F)(F)F)CC5)on4)c(F)c3)cnc2cc1OCCN1CCCC1 [Example 134, 2-[2-fluoro-4-[7-methoxy-6-(2-pyrrolidin-1-ylethoxy)quinoxalin-2-yl]phenyl]-N-[5-[1-(trifluoromethyl)cyclo-propyl]isoxazol-3-yl]acetamide] | < 0.01 | < 0.01 | < 0.01 | < 0.01
CCN1CC(Oc2cc3ncc(-c4ccc(CC(=O)Nc5cc(C6(C(F)(F)F)CC6)on5)c(F)c4)nc3cc2OC)C1 [Example 142, 2-[4-[6-(1-ethylazetidin-3-yl)oxy-7-methoxy-quinoxalin-2-yl]-2-fluoro-phenyl]-N-[5-[1-(trifluoro-methyl)cyclopropyl]isoxazol-3-yl]acetamide] | 0.01 to 0.02 | 0.01 to 0.02 | < 0.01 | < 0.01
COc1cc2nc(-c3ccc(CC(=O)Nc4cc(C(C)(C)C(F)(F)F)on4)c(F)c3)cnc2cc1OC1CNC1 [Example 148, 2-[4-[6-(azetidin-3-yloxy)-7-methoxy-quinoxalin-2-yl]-2-fluoro-phenyl]-N-[5-(2,2,2-trifluoro-1,1-dimethyl-ethyl)isoxazol-3-yl]acetamide] | 0.01 to 0.02 | 0.02 to 0.05 | < 0.01 | < 0.01

Reference: patent US9725465B2, “Biaryl acetamide compounds and methods of use thereof” (Ambit Biosciences Corporation, priority 2013, dated 2017)
